This is a sample that favours compounds with a hit; in the whole collection about 13% have one here.
Sfp inh: blocks B. subtilis Sfp PPTase activity. Biochemical Sfp PPTase activity, qHTS. AID 1490. Potency, µM, actives largely listed as inhibitors. Q9F4F7. hit rate 3.5% among 310,000;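 note: the enzyme is Sfp with the accession as filed and its product quenches rhodamine fluorescence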
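Fluorescence-quenching assay with 15 nM Sfp, 5 uM rhodamine-CoA and 12.5 uM BHQ-2-labelled ybbR peptide in pH 7.6 Hepes/MgCl2 buffer. Enzyme was pre-incubated with compound for 15 min at room temperature. Rate was taken from the 30-min fluorescence change (525/598 nm).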
KDM4E inh: inhibitors of human JMJD2E histone demethylase; B2RXH2; hit rate 1.6% among 230,000; AID 2147; JMJD2E catalytic domain, FDH-coupled NADH fluorescence (FDH is formaldehyde dehydrogenase); Potency, µM (series often up to 57.1 µM), actives largely listed as inhibitors; active = well fitted inhibition curve with a large enough effect, not every such curve was filed as active; inconclusive = small, poorly fitted or top-dose-only effect, or another doubt; inactive = no such curve, though single readings can be large or run the other way; note: nearly all actives have a fitted effect of over 50% in size
ALDH1A1 inh: inhibitors of human aldehyde dehydrogenase 1A1; P00352; Purified ALDH1A1, NADH fluorescence, propionaldehyde substrate; Potency, µM (doses to about 75.3 µM), hits mostly inhibitors; hit rate 7.3% among 220,000; AID 1030; active = well fitted inhibition curve with a large enough effect, not every such curve was filed as active; inconclusive = small, poorly fitted or top-dose-only effect, or another doubt; inactive = no such curve, though single readings can be large or run the other way
G9a block: inhibitors of human histone lysine methyltransferase G9a; hit rate 8.8% among 350,000; Potency, µM (doses to about 102 µM), hits mostly inhibitors; G9a H3K9 monomethylation, AlphaScreen, 2 h; Q96KQ7; note: nearly all actives have a fitted effect of over 75% in size
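Step 1: enzyme (final 20 nM) with compound, 15 min RT. Step 2: substrate peptide 500 nM and SAM 20 uM, 2 h RT. Step 3: anti-H3K9me1 antibody and AlphaScreen beads, 10 min, then plate read.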
Lamin A splicing: LMNA splicing modulation; AID 1487; HeLa LMNA splicing GFP/RFP minigene ratio, 48 h; Potency, µM (doses to about 46.1 µM), actives largely listed as inhibitors; hit rate 0.01% among 200,000; active = well fitted inhibition curve with a large enough effect in the signal ratio, with a control signal flat, not every such curve was filed as active; inconclusive = small, poorly fitted or top-dose-only effect, or effect the other way, or a change in a side signal; the % refers to the signal ratio
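S3 HeLa stable clones carrying a lamin A-EGFP splicing minigene plus DsRed2 were seeded at 600 cells/well in Opti-MEM with 2% FBS, pin-dosed and incubated 48 h at 37°C. Acumen cytometry (488 nm) gave the GFP/RFP total-intensity ratio.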
miR-21 reporter: raises the signal of a miR-21 reporter | AID 2288 | 340,000 tested, under 10 active | Potency, µM (series often up to 38.3 µM) | HeLa miR-21 FLuc reporter, luciferase, 48 h; active = well fitted rising curve with a large enough effect; inconclusive = small, poorly fitted or top-dose-only effect; inactive = no such curve, though single readings can be large or run the other way;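 further: miR-21 action dims this reporter so a rising signal means less miR-21 action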
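Using DMEM plus 10% FBS, HeLa miR-21-FLuc cells are incubated with test compounds (final up to about 40uM) for 48 hours; firefly luciferase signal is then imaged following reagent-mediated lysis.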
Numbers stand for hits; n = inactive; u = inconclusive; x = no result; ! = repeats disagree; [ ] = another dose, or the depositor's remark. Unless noted, calls come from the whole dose curve; as a rule, active = well fitted curve in the direction sought with a large enough effect; inconclusive = small, poorly fitted or top-dose-only effect, or another doubt; inactive = no such curve, though single readings can be large; an effect the other way counts as inactive or inconclusive.

SMILES	Sfp inh	KDM4E inh	ALDH1A1 inh	G9a block	Lamin A splicing	miR-21 reporter
COc1ccc2nc(NC(=O)c3nc(SCc4ccc(F)cc4)ncc3Cl)sc2c1	x	x	x	n	x	n
CC1CC(C)(C)NC(=S)N1CCC(=O)NCCc1ccc(Cl)cc1 (stereo not drawn)	n	n	u	50.1µM	n[9.22 µM]	n
CC1CC(C)(C)NC(=S)N1CCCC(=O)Nc1ccc(Cl)cc1 (stereo not drawn)	n	n	n	n	n[9.22 µM]	n
CC(C)c1ccc(NC(=O)CCCN2C(=S)NC(C)(C)CC2C)cc1 (stereo not drawn)	n	n	5.01µM	n	u	n
CC1CC(C)(C)NC(=S)N1CCCC(=O)NCCc1ccc(Cl)cc1 (stereo not drawn)	n	n	n	n	n[9.22 µM]	n
CC[C@]1(O)CC2CN(CCc3c([nH]c4ccccc34)[C@@](C(=O)OC)(c3cc4c(cc3OC)N(C)[C@H]3[C@@](O)(C(=O)OC)[C@H](OC(C)=O)[C@]5(CC)C=CCN6CC[C@]43[C@@H]65)C2)C1 (stereo partly drawn)	n	x	x	u	x	x
CCC1=C[C@@H]2CN(C1)Cc1c([nH]c3ccccc13)[C@@](C(=O)OC)(c1cc3c(cc1OC)N(C)[C@@H]1[C@@](O)(C(=O)OC)[C@H](OC(C)=O)[C@]4(CC)C=CCN5CC[C@]31[C@@H]54)C2	70.8µM	x	x	u	x	x
NNc1nc(-c2ccccc2Cl)nc2sc3c(c12)CCCC3	50.1µM	u	u	n	u	n
N#Cc1cc(S(=O)(=O)c2ccc(Cl)cc2)c(N)[nH]c1=O	n	n	u	50.1µM	x	n
Cc1oc(-c2cccc(Cl)c2)nc1CS(=O)(=O)CC(=O)NCc1ccco1	n	x	x	n	x	n
CC(C)(C)OC(=O)NCC1CCN(S(=O)(=O)Cc2ccccc2)CC1	n	x	x	n	x	n
CC(C)(C)OC(=O)NCC12C=CC(O1)C1C(=O)N(Cc3ccccc3)C(=O)C12 (stereo not drawn)	70.8µM	n	3.16µM	10µM	n	n
COc1cccc(C2C(=O)N(C3CCCCC3)CC(=O)N2Cc2ccc(Cl)cc2)c1 (stereo not drawn)	x	x	x	n	n	n
CCOC(=O)C1=C(C)C(c2ccccc2OC)NC(=S)N1 (stereo not drawn)	n	n	3.55µM	n[12.7 µM]	n	n
CNS(=O)(=O)c1ccc(NCC2COc3ccccc3O2)c([N+](=O)[O-])c1 (stereo not drawn)	n	n	n	15.8µM	u	n
COc1cc(CNCc2ccccn2)ccc1OCc1cccc(Cl)c1	79.4µM	n	n	n[0.0925 µM]	n	n
COc1cc(CNCc2ccccn2)ccc1OCc1c(Cl)cccc1Cl	39.8µM	n	n	n	n	n
COc1ccc(C2CC(=O)Oc3cc(C)c(Cl)c(C)c32)cc1 (stereo not drawn)	n	x	u	n	x	x
O=c1onc2cnc3ccccc3n12	n	u	u	n[12.7 µM]	n	x
CCCN(CCC)S(=O)(=O)c1ccc2c(c1)N(CC(=O)NC(C)c1ccccc1)C(=O)CS2 (stereo not drawn)	x	x	x	n	n	n
CCN(CC)C(=O)CSc1nc(N)c2c3c(sc2n1)CC(C)CC3 (stereo not drawn)	n	n	n	n	u	n
CC1CCc2c(sc3nc(SCC(=O)NCc4ccco4)nc(N)c23)C1 (stereo not drawn)	n	u	n	u	u	n
Nc1nc(SCC(=O)NCCCN2CCOCC2)nc2sc3c(c12)CCC3	28.2µM	u	u	u	n	n
CCSc1nc(N)c2c3c(sc2n1)CN(C)CC3	n	u	u	44.7µM	u	n
CCOC(=O)c1cnn(-c2nc(SC)nc3sc4c(c23)CCCC4)c1N	n	n	1.12µM	n	u	n
SMILES	Sfp inh	KDM4E inh	ALDH1A1 inh	G9a block	Lamin A splicing	miR-21 reporter
CCOC(=O)CSc1nc(N)c2c3c(sc2n1)CCCC3	n	n	n	70.8µM	n	n
CSc1nc(N)c2c3c(sc2n1)CN(C)CC3	n	x	x	n	x	n
CCOc1ccc(-c2cc3c(=O)n(Cc4nc(-c5ccc(OCC)c(OC)c5)oc4C)ccn3n2)cc1Cl	x	x	x	n	x	n
Cc1nc2nc(C)c(CCC(=O)NCCCN3CCN(c4cccc(Cl)c4)CC3)c(C)n2n1	n	n	n	50.1µM!	u	n
CN(C)c1ccc(N=C/C=C2\N(C)c3ccccc3C2(C)C)cc1	u	u	u	39.8µM	n	n
CN1\C(=C/C=C/C=C/C=[N+](C)C)C(C)(C)c2ccccc21	56.2µM	u	25.1µM	11.2µM	n[9.22 µM]	n
CN1/C(=C\C=O)C(C)(C)c2ccccc21	n	n	n	n	u	n
CN1/C(=C\C=Nc2ccc3ccccc3c2)C(C)(C)c2ccccc21	n	u	u	1.78µM	n	n
Cc1cc(/N=C/C=C2\N(C)c3ccccc3C2(C)C)n(CCC#N)n1	n	n	n	50.1µM	u	n
CCOc1ccc(CNC(=O)c2cccc(NC(=O)N3CCSc4ncccc43)c2)cc1OC	x	x	x	n	x	n
COc1ccc(/C(=C\C(=O)O)c2nccc3cc(OC)c(OC)cc23)cc1OC	n	n	n	x	x	x
CCOc1ccc(C(C)=O)cc1N1C(=O)C2C3C=CC(C3=C(C)C)C2C1=O (stereo not drawn)	44.7µM	n	n	u	n	n
COc1ccc(C(=O)OC(C(=O)c2ccc(C)cc2)c2ccccc2)cc1 (stereo not drawn)	n	n	n	u	n	n
CC(=O)OC(C(=O)c1ccccc1)c1ccccc1 (stereo not drawn)	x	x	22.4µM	x	x	x
CCc1ccc(-n2c(=O)c3sc4ccccc4c3n(Cc3cccc(F)c3)c2=O)cc1	x	x	x	n	x	n
O=C(O)c1cccc(S(=O)(=O)N2CCN(C(c3ccccc3)c3ccccc3)CC2)c1	n	u	u	35.5µM	x	n
O=C(O)c1cccc(S(=O)(=O)N2CCCC2)c1	n	n	n	u	n	n
CC(C)N1CCN(S(=O)(=O)c2ccc3ccccc3c2)CC1	u	x	x	x	x	n
CC(C)N1CCN(S(=O)(=O)c2ccccc2)CC1	n	x	x	22.4µM	x	n
CCOc1ccc(NC(=O)Cn2c(=O)n(-c3cccc(OC)c3)c(=O)c3c4c(sc32)CCCC4)cc1	x	x	x	n	x	n
O=C1CS(=O)(=O)C2(C(=O)N(Cc3cccc(F)c3)c3ccccc32)N1c1ccccc1 (stereo not drawn)	x	x	x	u	n	n
COC(=O)[C@@H](NC(=O)N1CCc2nc(-c3ccc(OC)cc3C)c3c(c2C1)CO[C@@H](c1ccccc1)C3)C(C)C	n	n[11.4 µM]	u	x	u	x
CO/S(=N\S(=O)(=O)c1ccc(Cl)cc1)c1ccc([N+](=O)[O-])cc1 (stereo not drawn)	x	x	x	3.16µM	x	x
O=C(O)c1cccc(-n2c(/C=C/c3cccc([N+](=O)[O-])c3)nc3ccccc3c2=O)c1	n	x	x	n[0.501 µM]	x	n
O=C(O)c1cccc(-n2c(/C=C/c3ccc([N+](=O)[O-])cc3)nc3ccccc3c2=O)c1	n	x	x	70.8µM	x	n

Compound activity: PubChem, National Center for Advancing Translational Sciences (NCATS)
